{"source": "patent US7547728B2", "about": "“Treating muscle wasting with selective androgen receptor modulators” (priority 2001, dated 2009)", "system": "seminal vesicles", "assay": "Androgenic activity: seminal vesicle weight in male rats", "conditions": "relative to TP", "data": [{"smiles": "CC(=O)Nc1ccc(OC[C@](C)(O)C(=O)Nc2ccc([N+](=O)[O-])c(C(F)(F)F)c2)cc1", "note": "[Compound V]", "values": [{"measurement": "Relative Afficacy", "value": 0.40}, {"measurement": "Relative Potency", "value": 0.22}]}]}
